Reference: publication PMC4158421, “Screening-based discovery of Aspergillus fumigatus plant-type chitinase inhibitors” (Febs Letters, 2014)

By UniProt entry, the sequences of proteins in these tests, tags left out. Residues count along the entry.
UniProt Q13231, 22-466 limits assumed: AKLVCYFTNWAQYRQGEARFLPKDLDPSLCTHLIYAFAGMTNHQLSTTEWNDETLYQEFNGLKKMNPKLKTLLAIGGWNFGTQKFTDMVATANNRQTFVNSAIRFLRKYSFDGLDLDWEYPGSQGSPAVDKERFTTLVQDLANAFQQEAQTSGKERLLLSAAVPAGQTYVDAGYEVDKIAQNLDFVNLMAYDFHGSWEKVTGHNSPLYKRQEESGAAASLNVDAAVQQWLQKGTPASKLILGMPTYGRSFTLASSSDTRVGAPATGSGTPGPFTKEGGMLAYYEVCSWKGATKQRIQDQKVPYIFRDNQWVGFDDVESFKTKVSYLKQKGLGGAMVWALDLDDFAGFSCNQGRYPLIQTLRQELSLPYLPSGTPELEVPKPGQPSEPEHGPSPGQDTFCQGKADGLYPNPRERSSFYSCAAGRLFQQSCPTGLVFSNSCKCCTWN
UniProt P29029, 21-562 limits assumed: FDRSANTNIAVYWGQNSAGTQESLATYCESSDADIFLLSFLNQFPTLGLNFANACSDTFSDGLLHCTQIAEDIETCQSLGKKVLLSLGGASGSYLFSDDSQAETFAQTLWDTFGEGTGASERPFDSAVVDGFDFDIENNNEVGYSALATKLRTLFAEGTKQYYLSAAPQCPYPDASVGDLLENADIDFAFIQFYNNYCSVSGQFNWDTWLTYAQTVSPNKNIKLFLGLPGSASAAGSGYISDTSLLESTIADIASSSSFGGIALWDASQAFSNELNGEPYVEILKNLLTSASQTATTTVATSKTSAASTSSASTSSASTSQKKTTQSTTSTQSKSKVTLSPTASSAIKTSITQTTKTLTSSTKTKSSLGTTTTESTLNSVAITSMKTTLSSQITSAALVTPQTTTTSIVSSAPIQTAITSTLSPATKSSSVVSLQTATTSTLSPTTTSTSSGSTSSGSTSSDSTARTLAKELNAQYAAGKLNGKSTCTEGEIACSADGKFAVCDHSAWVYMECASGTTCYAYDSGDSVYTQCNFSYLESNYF
UniProt Q9BZP6, 22-476 limits assumed: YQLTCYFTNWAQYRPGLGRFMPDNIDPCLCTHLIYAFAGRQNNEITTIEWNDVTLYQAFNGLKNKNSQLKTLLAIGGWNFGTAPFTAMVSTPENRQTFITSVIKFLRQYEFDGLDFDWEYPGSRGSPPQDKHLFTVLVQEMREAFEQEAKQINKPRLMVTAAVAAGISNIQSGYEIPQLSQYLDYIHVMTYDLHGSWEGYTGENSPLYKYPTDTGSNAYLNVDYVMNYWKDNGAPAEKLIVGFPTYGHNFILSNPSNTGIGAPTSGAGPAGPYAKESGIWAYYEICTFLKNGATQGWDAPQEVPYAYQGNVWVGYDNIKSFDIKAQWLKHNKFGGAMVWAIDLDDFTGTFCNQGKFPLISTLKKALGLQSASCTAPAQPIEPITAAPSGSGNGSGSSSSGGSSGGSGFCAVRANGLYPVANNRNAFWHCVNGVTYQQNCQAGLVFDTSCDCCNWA

Tests used:
Assay type in all cases: biochemical
[1] = molecular target: Homo sapiens chitinase 1/chitotriosidase (HsCHT) (Homo sapiens, UniProt Q13231); assay: Counter screening assay against HsCHT; conditions: for IC50: read-out: GH18 family chitinase IC50, bacterial-type, HsCHT, substrate 4MU-NAG2
Method: Counter screening assays to determine an IC50 against other GH18 family chitinases included S. cerevisiae CTS1 (ScCTS1, model plant-type chitinase) and three bacterial-type chitinases (A. fumigatus chitinase B1 [AfChiB], acidic mammalian chitinase [AMCase] and Homo sapiens chitinase 1/chitotriosidase [HsCHT]). Assays were performed as per AfChiA1 with the following modifications, [29]. Bacterial-type chitinases (AfChiB, AMCase and HsCHT) utilised 4-methylumbelliferyl β-D-N-N-diacetylchitobioside (4MU-NAG2) as a substrate and for these pentoxifylline (Sigma) was used as a control inhibitor [30]. Substrate concentrations for IC50 determinations were selected according to the published Km values for each enzyme, [29], [31], [32]. The mode of inhibition was established by Lineweaver–Burk plots of steady-state kinetics with 50 μM to 1 mM of 4MU-GlcNAc3 in the presence of different concentrations of selected compounds [23].

[2] = molecular target: S. cerevisiae CTS1 (ScCTS1) (Saccharomyces cerevisiae, UniProt P29029); assay: Counter screening assay against ScCTS1; conditions: for IC50: read-out: GH18 family chitinase IC50, plant-type, ScCTS1
[3] = molecular target: acidic mammalian chitinase (AMCase) (Homo sapiens, UniProt Q9BZP6); assay: Counter screening assay against AMCase; conditions: read-out: GH18 family chitinase IC50, bacterial-type, AMCase; substrate 4MU-NAG2

Row | SMILES | activity against HsCHT [1] | fold greater potency against ScCTS1 compared to AfChiA1 [2] [fold] | IC50 [3] [µM] | IC50 [2] [µM] | IC50 [1] [µM]
1 | COc1ccccc1-c1noc2nc(C)[nH]c(=O)c12 | no activity | 5 | 9.8 | – | –
2 | Cc1nn(C)cc1C(=O)Nc1ccc(Cl)cc1 | – | – | – | > 100 | –
3 | Cc1nc2scc(-c3ccccc3)c2c(=O)[nH]1 | – | – | 13.6 | 16.1 | > 100
4 | CSc1ccc(C2C(C#N)=C(N)Oc3nc(C)[nH]c(=O)c32)cc1 (stereo not shown) | – | – | – | > 100 | –
5 | CCc1nnc(NC(=O)c2sc3nccc(COC)c3c2N)s1 | – | – | – | > 100 | –
6 | Cc1c(C(=O)N2CCN(CCc3ccccc3)CC2)oc2ccccc12 | – | – | > 100 | 63 | > 100
7 | NC1=C(c2nc3ccccc3[nH]2)C(=O)CN1CCc1ccccc1 | – | – | – | > 100 | –
